A short description of this data set: Nanoparticle size by DLS. Particulars: DLS (Anton Paar Litesizer 500), in PBS; FIG. 6, FIG. 7. It counts as physicochemical. On the procedure: MINC anti-HER2 nanoparticles were prepared according to WO2009/054813. In brief, anti-HER2 was incubated in PBS. […] After incubating the mixture at room temperature, 10K MWCO centrifugal filter was used to remove the unreacted oligomer flavonoid and polymer-flavonoid.
MINC (Multi-target Immune Nanocarrier Combination)-BSA nanoparticles were prepared according to WO2009/054813. In brief, BSA was incubated in PBS. Subsequently, OEGCG was added to BSA, followed by adding different polymer-flavonoid including PEG-EGCG, HA-EGCG and Dextran-EGCG. After incubating the mixture at room temperature, 10K MWCO centrifugal filter was used to remove the unreacted OEGCG and polymer-flavonoid. DLS (Anton Paar Litesizer 500) was used to measure the nanoparticle size.

trastuzumab [anti-HER antibody]: the particle size is 5-10 nm.

The record behind these values is patent publication US20250064969A1, “METHOD FOR TREATING AUTOIMMUNE DISEASE” (Suntec Medical, Inc., priority 2022, published 2025).
